From US10501494B2, “Uses of peptides to treat brain injury and disease” (priority 2013, dated 2019) come the findings set out here.

The chains behind the UniProt entries cited, without tags or fusion partners.
UniProt P51681, whole entry: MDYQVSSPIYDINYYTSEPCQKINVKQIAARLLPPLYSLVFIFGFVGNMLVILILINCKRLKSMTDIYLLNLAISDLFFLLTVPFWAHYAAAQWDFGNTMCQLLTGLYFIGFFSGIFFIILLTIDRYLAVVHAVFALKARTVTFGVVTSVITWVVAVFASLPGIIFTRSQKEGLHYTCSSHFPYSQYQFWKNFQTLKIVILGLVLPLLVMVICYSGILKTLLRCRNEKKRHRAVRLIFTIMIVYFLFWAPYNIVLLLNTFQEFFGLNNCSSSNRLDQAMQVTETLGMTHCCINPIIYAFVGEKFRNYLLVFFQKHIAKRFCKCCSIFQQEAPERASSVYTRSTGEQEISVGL

This test concerns the target MIP-1β (CCL4)/CCR5 (Homo sapiens, UniProt P51681). Particulars: low (sub-pM) concentrations, MIP-1β 50 ng/mL, monocytes treated with GM-CSF for 48 hours.

For the compound `C[C@@H](N)C(=O)N[C@@H](CO)C(=O)N[C@H](C(=O)N[C@H](C(=O)N[C@H](C(=O)N[C@@H](CC(N)=O)C(=O)N[C@@H](Cc1ccc(O)cc1)C(=O)N[C@H](C(N)=O)[C@@H](C)O)[C@@H](C)O)[C@@H](C)O)[C@@H](C)O` [RAP-101, D-Ala1-STTTNYT-NH2], the “potency to block CCR5-mediated human monocyte chemotaxis” value was “comparable potency”.
